Columns and labels:
[1] = test system: human lung cancer strain NCI-H441; assay: NCI-H441 cell proliferation inhibitory activity (CellTiter-Glo, 4 days); assay type: cell-based; settings: read-out: NCI-H441 IC50, NCI-H441 cells
[2] = molecular target: GDP-bound HRAS wild-type protein (Homo sapiens, UniProt P01112); assay: Binding to HRAS by surface plasmon resonance (SPR), Single Cycle Kinetics; settings: KD ratio class
[3] = molecular target: GDP-bound NRAS wild-type protein (Homo sapiens, UniProt P01111); assay: Binding to NRAS by surface plasmon resonance (SPR), Single Cycle Kinetics; settings: KD ratio class
[4] = molecular target: GDP-bound KRAS wild-type protein (Homo sapiens, UniProt P01116); assay: Binding to KRAS by surface plasmon resonance (SPR), Single Cycle Kinetics; settings: read-out: KRAS KD

Protein sequences, listed by entry. Tags and fused reporters are not part of them.
UniProt P01112, whole entry: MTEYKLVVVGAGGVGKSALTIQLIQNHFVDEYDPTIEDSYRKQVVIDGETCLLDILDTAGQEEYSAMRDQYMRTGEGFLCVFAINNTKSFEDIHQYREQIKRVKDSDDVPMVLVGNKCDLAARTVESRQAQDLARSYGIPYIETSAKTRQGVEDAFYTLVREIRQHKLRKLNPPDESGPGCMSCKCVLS
UniProt P01111, whole entry: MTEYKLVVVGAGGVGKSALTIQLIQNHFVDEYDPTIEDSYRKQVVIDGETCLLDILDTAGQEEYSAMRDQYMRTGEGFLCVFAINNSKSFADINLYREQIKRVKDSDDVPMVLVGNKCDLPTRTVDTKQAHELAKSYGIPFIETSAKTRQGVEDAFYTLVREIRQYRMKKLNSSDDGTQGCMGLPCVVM
UniProt P01116, whole entry: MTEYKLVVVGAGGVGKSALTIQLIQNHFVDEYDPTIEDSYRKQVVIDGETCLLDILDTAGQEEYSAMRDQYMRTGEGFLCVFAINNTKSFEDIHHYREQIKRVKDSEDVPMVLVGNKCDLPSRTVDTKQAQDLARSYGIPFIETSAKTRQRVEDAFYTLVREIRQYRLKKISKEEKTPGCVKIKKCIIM

| SMILES | IC50 [1] [nM] | HRAS/KRAS (ratio of KD value for GDP-bound HRAS wild-type protein to KD value for KRAS) [2] | NRAS/KRAS (ratio of KD value for GDP-bound NRAS wild-type protein to KD value for KRAS) [3] | Kd [4] [nM] |
| --- | --- | --- | --- | --- |
| CCO[C@@H]1C[C@H]2C(=O)NC3(CCC3)C(=O)N(C)[C@@H](C(CC)CC)C(=O)N(C)[C@H](C3CCCCC3)CC(=O)N(C)[C@@H](COC)C(=O)N[C@@H]([C@@H](C)CC)C(=O)N(C)CC(=O)N(C)[C@H]3C/C=C\CCN(C3=O)[C@@H](Cc3ccc(C(F)(F)F)cc3)C(=O)N(C)CC(=O)N[C@@H](CCc3cc(F)c(C(F)(F)F)c(F)c3)C(=O)N2C1 | 45.7 |  |  |  |
| CCCCCC[C@H]1C(=O)N[C@@H]([C@@H](C)CC)C(=O)N(C)CC(=O)N(C)[C@H]2C/C=C\CCN(C2=O)[C@@H](Cc2ccc(C(F)(F)F)cc2)C(=O)N(C)CC(=O)N[C@@H](CCc2ccc(C(F)(F)F)c(OC)c2)C(=O)N2C[C@H](OCC)C[C@H]2C(=O)NC2(CCC2)C(=O)N(C)[C@@H](C(CC)CC)C(=O)N(C)[C@H](C(=O)N(C)C)CC(=O)N1C | 44.3 | A (a compound having 10 or more and less than 20 is denoted as A) | AA (a compound having 20 or more is denoted as AA) | 0.4 |
| CCO[C@@H]1C[C@H]2C(=O)NC3(CCC3)C(=O)N(C)[C@@H](C3CCCC3)C(=O)N(C)[C@H](C(C)C)CC(=O)N(C)[C@@H](CC)C(=O)N[C@@H]([C@@H](C)CC)C(=O)N(C)CC(=O)N(C)[C@H]3C/C=C\CCN(C3=O)[C@@H](Cc3ccc(C(F)(F)F)cc3)C(=O)N(C)CC(=O)N[C@@H](CCc3ccc(C(F)(F)F)c(OC)c3)C(=O)N2C1 | 13.8 |  |  |  |
| CCO[C@@H]1C[C@H]2C(=O)NC3(CC(C)(C)C3)C(=O)N(C)[C@@H](C(CC)CC)C(=O)N(C)[C@H](C(C)C)CC(=O)N(C)[C@@H](CC)C(=O)N[C@@H]([C@@H](C)CC)C(=O)N(C)CC(=O)N(C)[C@H]3C/C=C\CCN(C3=O)[C@@H](Cc3ccc(C(F)(F)F)cc3)C(=O)N(C)CC(=O)N[C@@H](CCc3cc(F)c(C(F)(F)F)c(F)c3)C(=O)N2C1 | 106 |  |  |  |
| CCO[C@@H]1C[C@H]2C(=O)NC3(CCC3)C(=O)N(C)[C@@H](C3CCCC3)C(=O)N(C)[C@H](C)CC(=O)N(C)[C@@H](CC3CCCC3)C(=O)N[C@@H]([C@@H](C)CC)C(=O)N(C)CC(=O)N(C)[C@H]3C/C=C\CCN(C3=O)[C@@H](Cc3ccc(F)cc3C)C(=O)N(C)CC(=O)N[C@@H](CCc3cc(F)c(C(F)(F)F)c(F)c3)C(=O)N2C1 | 198 |  |  |  |
| CCO[C@@H]1C[C@H]2C(=O)NC3(CCC3)C(=O)N(C)[C@@H](C(CC)CC)C(=O)N(C)[C@H](C(=O)N(C)C)CC(=O)N(C)[C@@H](CC3CCCC3)C(=O)N[C@@H]([C@@H](C)CC)C(=O)N(C)CC(=O)N(C)[C@H]3C/C=C\CCN(C3=O)[C@@H](Cc3ccc(C(F)(F)F)cc3)C(=O)N(C)CC(=O)N[C@@H](CCc3cc(F)c(C(F)(F)F)c(F)c3)C(=O)N2C1 | 23.4 | A (a compound having 10 or more and less than 20 is denoted as A) | AA (a compound having 20 or more is denoted as AA) | 0.24 |
| CCO[C@@H]1C[C@H]2C(=O)NC3(CCC3)C(=O)N(C)[C@@H](C3CCCC3)C(=O)N(C)[C@H](C(=O)N(C)C)CC(=O)N(C)[C@@H](CC3CCCC3)C(=O)N[C@@H]([C@@H](C)CC)C(=O)N(C)CC(=O)N(C)[C@H]3C/C=C\CCN(C3=O)[C@@H](Cc3ccc(F)cc3)C(=O)N(C)CC(=O)N[C@@H](CCc3cc(F)c(C(F)(F)F)c(F)c3)C(=O)N2C1 |  | B (a compound having 3 or more and less than 10 is denoted as B) | A (a compound having 10 or more and less than 20 is denoted as A) |  |
| CC[C@H](C)[C@@H]1NC(=O)[C@H](CC2CCCC2)N(C)C(=O)C[C@@H](C(=O)N(C)C)N(C)C(=O)[C@H](C2CCCC2)N(C)C(=O)C2(CCC2)NC(=O)[C@@H]2C[C@@H](C(F)(F)F)CN2C(=O)[C@H](CCc2cc(F)c(C(F)(F)F)c(F)c2)NC(=O)CN(C)C(=O)[C@H](Cc2ccc(C(F)(F)F)cc2)N2CC/C=C\C[C@@H](C2=O)N(C)C(=O)CN(C)C1=O |  | A (a compound having 10 or more and less than 20 is denoted as A) | A (a compound having 10 or more and less than 20 is denoted as A) |  |
| CCO[C@@H]1C[C@H]2C(=O)NC3(CC(C)(C)C3)C(=O)N(C)[C@@H](C3CCCC3)C(=O)N(C)[C@H](C3CCCCC3)CC(=O)N(C)[C@@H](COC)C(=O)N[C@@H]([C@@H](C)CC)C(=O)N(C)CC(=O)N(C)[C@H]3C/C=C\CCN(C3=O)[C@@H](Cc3ccc(C(F)(F)F)cc3)C(=O)N(C)CC(=O)N[C@@H](CCc3cc(F)c(C(F)(F)F)c(F)c3)C(=O)N2C1 | 27.4 |  |  |  |

— patent publication US20250230193A1, “CYCLIC COMPOUND HAVING SELECTIVE KRAS INHIBITORY EFFECT ON HRAS AND NRAS” (CHUGAI SEIYAKU KABUSHIKI KAISHA, priority 2022, published 2025)
